Target: Carbonic anhydrase 2 (Homo sapiens, UniProt P00918)

Q: How did the Ki turn out when `NS(=O)(=O)c1ccc2[nH]c(-c3cscn3)nc2c1` was run?
A: 72.5 nM

From ChEMBL document CHEMBL1152885 (Bioorg Med Chem Lett, 2009)
